Values of other authors as cited in US6310273A, “Inhibiting apoptosis in plants using a baculovirus p35 protease inhibitor gene” (The Regents of the University of California, priority 1999, dated 2001).

Biological target: T1, caspase-3 (CPP32, apopain, Yama) (Homo sapiens, UniProt P42574)
T1 construct: purchased BIOMOL Research Laboratories, Inc. AK-700
T1 sequence (P42574 29-175 limits assumed): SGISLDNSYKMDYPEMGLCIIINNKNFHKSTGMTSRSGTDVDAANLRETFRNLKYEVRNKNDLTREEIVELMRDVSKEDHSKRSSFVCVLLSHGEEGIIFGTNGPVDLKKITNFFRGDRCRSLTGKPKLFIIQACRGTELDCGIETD
T1 sequence (P42574 176-277 limits assumed): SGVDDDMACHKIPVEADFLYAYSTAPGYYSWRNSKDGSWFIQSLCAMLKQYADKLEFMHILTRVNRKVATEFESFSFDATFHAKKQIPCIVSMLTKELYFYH
Details: DEVD-p-nitroanilide cleavage, absorption at 405 nm; read-out: IC50, inhibition of caspase 3 substrate cleavage; cited from earlier work

In the case of `CC(=O)N[C@@H](CC(=O)O)C(=O)N[C@@H](CCC(=O)O)C(=O)N[C@H](C(=O)N[C@H](C=O)CC(=O)O)C(C)C` [Ac-DEVD-CHO], the IC50 is given as 25 nM.
